Results as given in PubChem BioAssay AID1851 (National Center for Advancing Translational Sciences (NCATS), 2009).
This list holds what a sample rich in hits left over. Records with an inconclusive call do not appear. Calls of active or inactive are those of the source. Calls come from the whole dose curve; as a rule, active = well fitted curve in the direction sought with a large enough effect; inconclusive = small, poorly fitted or top-dose-only effect, or effect the other way; inactive = no such curve, though single readings can be large or run the other way.

Protein sequences, listed by entry. Tags and fused reporters are not part of them.
UniProt P11712, whole entry, looked up: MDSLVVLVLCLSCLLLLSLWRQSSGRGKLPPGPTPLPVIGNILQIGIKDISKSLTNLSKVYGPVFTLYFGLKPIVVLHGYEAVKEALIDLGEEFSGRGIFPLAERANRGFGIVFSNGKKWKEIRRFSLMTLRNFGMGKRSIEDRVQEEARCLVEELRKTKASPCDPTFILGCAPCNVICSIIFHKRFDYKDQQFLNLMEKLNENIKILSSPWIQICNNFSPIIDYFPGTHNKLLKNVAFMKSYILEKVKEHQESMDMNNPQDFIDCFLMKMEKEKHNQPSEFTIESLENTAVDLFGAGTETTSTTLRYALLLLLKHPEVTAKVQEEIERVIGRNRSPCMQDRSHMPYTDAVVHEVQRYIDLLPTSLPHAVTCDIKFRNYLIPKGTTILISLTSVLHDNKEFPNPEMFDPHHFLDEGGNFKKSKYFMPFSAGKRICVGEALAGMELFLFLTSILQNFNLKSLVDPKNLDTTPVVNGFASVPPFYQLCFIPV

Biological target: Cytochrome P450 2C9 (Homo sapiens) (UniProt P11712)
Test: Cytochrome panel assay with activity outcomes
Settings: recombinant CYP, pro-luciferin dealkylation, luminescence, p450-cyp2c9; at 57.1 µM (top of the series) unless noted
% is set by controls: 0 for no effect and ±100 for the full control effect.

| Structure (SMILES) | activity, negative = inhibition |
| --- | --- |
| CN(CCC(=O)O)C1=Nc2ccc(Cl)cc2C(c2ccccc2)=[N+]([O-])C1 | inactive: 3.82% [at 11.4 µM] |
| CN1CCCC2(CCN(C(=O)c3csnn3)CC2)C1 | inactive: 3.69% |
